Tests used:
[1] = system: LPS-induced HepG2 cells; assay: IL-4, IL-10 and TNF-α in supernatant of LPS-induced HepG2 cells (ELISA)
[2] = molecular target: recombinant human MAO-B (Homo sapiens, UniProt P27338); assay: Recombinant human MAO-B enzyme inhibition assay; assay type: biochemical; details: n = 3; for IC50: 10 concentrations starting from 10 μM
[3] = system: LPS-induced HepG2 cells; assay: ALT and AST in supernatant of LPS-induced HepG2 cells; details: HepG2, 100 ng/mL LPS, compounds 10, 20, 40 μM; for LPS-elevated ALT level / LPS-elevated AST level: p < 0.01 vs. model
[4] = system: HepG2 cells; assay: Cytotoxicity assay (CCK-8); details: 24 h; for survival (cell viability): HepG2, at any tested doses (10 to 100 μM), no significant viability reduction, p > 0.05

Amino acid sequences for entries named in this document (tags omitted).
UniProt P27338, whole entry: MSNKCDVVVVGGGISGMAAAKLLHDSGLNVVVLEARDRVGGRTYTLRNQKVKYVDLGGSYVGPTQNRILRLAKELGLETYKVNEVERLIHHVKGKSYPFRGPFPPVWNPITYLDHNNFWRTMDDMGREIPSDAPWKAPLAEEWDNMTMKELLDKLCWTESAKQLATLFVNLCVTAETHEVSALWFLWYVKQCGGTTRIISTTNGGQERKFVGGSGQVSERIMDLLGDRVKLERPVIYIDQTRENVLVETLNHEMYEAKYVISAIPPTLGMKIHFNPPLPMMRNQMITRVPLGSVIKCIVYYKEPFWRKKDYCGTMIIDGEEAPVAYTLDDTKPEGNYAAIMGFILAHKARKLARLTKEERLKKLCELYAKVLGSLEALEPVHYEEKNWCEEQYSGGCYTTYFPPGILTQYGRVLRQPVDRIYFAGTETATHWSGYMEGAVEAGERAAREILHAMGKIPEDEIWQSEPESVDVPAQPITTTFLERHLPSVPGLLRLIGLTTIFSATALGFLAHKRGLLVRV

Structure (SMILES) | LPS-induced inflammatory response (pro-inflammatory cytokines) [1] | Residual activity at 10 μM (%) [2] [%] | IC50 [2] [µM] | LPS-elevated ALT level [3] | LPS-elevated AST level [3] | dose-dependent cytotoxicity, concentration ([4]; HepG2, 10 to 100 μM, p < 0.05 vs. vehicle control) | dose dependence of ALT and AST suppression [3] | survival (cell viability) [4] [%] | potency in cytokine modulation (IL-4, IL-10, TNF-α) ([1]; at 10 μM)
CC1(C)CC1c1cc2ccc(O)cc2oc1=O (single isomer, unassigned) [(+)-1] | significantly inhibited | 61 | 7.26 | significantly reduced | significantly reduced | above 80 μM |  |  | 
COc1cc2cc(C3CC3(C)C)c(=O)oc2cc1O (single isomer, unassigned) [(+)-2] | significantly inhibited | 37 | 22.1 | significantly reduced | significantly reduced |  | Dose-dependent suppression | ≥ 98 | 
CC1(C)CC1c1cc2ccc(O)cc2oc1=O (single isomer, unassigned) [(−)-1] | significantly inhibited | 64 | 8.72 | significantly reduced | significantly reduced |  | maximum efficacy at 10 μM | ≥ 98 | exceptional potency
COc1cc2cc(C3CC3(C)C)c(=O)oc2cc1O (single isomer, unassigned) [(−)-2] |  | 37 | 30 |  |  |  | Dose-dependent suppression | ≥ 98 | 

Reference: PMC12704139, “(±)-Rutacycoumarins A and B: two pairs of unprecedented coumarin enantiomers from the aerial part of Ruta graveolens L. and chemically synthesized” (Pharmaceutical Biology, 2025)
